# Apparent affinities of Ab-14 variants for a coronavirus HR2 peptide

The target is the same throughout: PDVDLGDISGINAS, from the HR2 region of SARS-CoV-2 spike.

Each scFv is VH, a (GGGGS)3 linker, VL, as in the parent Ab-14, and differs from it in the CDRs of the light chain only.
VH: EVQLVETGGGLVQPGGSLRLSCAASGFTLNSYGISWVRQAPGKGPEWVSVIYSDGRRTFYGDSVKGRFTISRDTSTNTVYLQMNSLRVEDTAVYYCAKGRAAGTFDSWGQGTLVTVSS
VL: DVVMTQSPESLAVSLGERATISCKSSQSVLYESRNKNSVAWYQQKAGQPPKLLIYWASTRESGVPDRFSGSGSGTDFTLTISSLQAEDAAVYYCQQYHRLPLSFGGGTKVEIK

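This is the validation round: designs drawn from the data on random variants, tested in the same kind of assay. Their group label is 14L_GP_Gen (GP: Gaussian process model; Gen: genetic algorithm; a sequence that several methods proposed may carry one label only). Affinity was read by AlphaSeq, a pooled yeast mating assay with surface-displayed partners. Binding brings cells together so that they mate, and sequencing counts the barcode pairs among the diploids. Read counts were normalised to the haploid input and turned into Kd by a linear fit to BCL2-family pairs of known affinity, for each replicate. The assay was run in six technical replicates.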

Each variant is given by its three light chain CDRs, as the data file delimits them; those of the parent are KSSQSVLYESRNKNSVA, WASTRES, QQYHRLPLS.
Affinities are written as log10 Kd with Kd in nM; a lower number is a better binder.
Replicates are averaged; those with no signal do not enter the mean.
Of ten entries with the parent sequence, four were seen in most replicates (averages 0.34 to 2.37), three in one and three in none, so single entries are noisy.

Variant KLSQSWLYESRNKNSVA, NASTREW, QQYHRLPLS showed 0.01, -0.08, -0.25, -0.08, -0.16, 0.01 (mean -0.09; controls 1 of 18).
Variant KLSQSFLYESRNKNSVA, DASTRES, QAYHRLPLS showed -0.05, 0.00, -0.14, -0.12, 0.00, -0.13 (mean -0.07; controls 2 of 18).
Variant KSSQSYLYESGNKNSVA, NASTRES, QQYHRLPLS showed -0.07, -0.36, -0.35, -0.13, -0.20, 0.15 (mean -0.16; controls 1 of 18).
Variant KLSQSWLYESRMKNSVA, NASTRLS, QQYHRLPLS showed 0.56, 0.32, 0.23, 0.28, 0.37, 0.32 (mean 0.35; controls 3 of 18).
Variant KLQQSVEYESRNKNSVA, GASTRES, QQYHRLPLS showed -0.05, -0.13, -0.34, -0.24, -0.33, -0.24 (mean -0.22; controls 0 of 18).
Variant KSSQSHLYESRNKNSVA, NASTRES, QQYHRLPLS showed 0.25, 0.41, 0.20, 0.29, 0.34, 0.23 (mean 0.29; controls 4 of 18).
Variant KLPQSSLYESRNKNSVA, NASTRES, QQYHRLPLS showed -0.02, -0.08, -0.10, -0.36, -0.26, 0.01 (mean -0.13; controls 0 of 18).
Variant KLPQSVLYESRNKNSVA, NASTREW, QQYHRLPLS showed 0.01, -0.33, -0.48, -0.54, 0.14, 0.07 (mean -0.19; controls 0 of 18).
Variant KLSQSWLYESRNKNSVA, NGSTRES, QQYHRLPLS showed 0.48, 0.41, 0.36, 0.24, 0.22, 0.44 (mean 0.36; controls 5 of 18).
Variant KLSQSVLYESRNKMSVA, NASQRES, QQYHRLPLS showed 0.59, -0.04, -0.08, -0.16, -0.12, 0.31 (mean 0.09; controls 0 of 18).
Variant KLSQSVLYESRNKNSVA, DASTRMS, QQYHRLPLS showed -0.16, -0.30, -0.44, -0.39, -0.47, -0.25 (mean -0.33; controls 0 of 18).
Variant KQSQSDLYESRNKNSVA, EASTRES, QQYHRLPLS showed 0.17, -0.01, 0.66, 0.09, 0.39, 0.50 (mean 0.30; controls 0 of 18).
Variant KLSQSMLYESRNKNNVA, EASTRES, QQYHRLPLS showed -0.64, -0.66, -0.73, -0.80, -0.77, -0.73 (mean -0.72; controls 0 of 18).
Variant KVSQSHLYESRNKNSVA, NASTRMS, QQYHRLPLS showed 0.03, -0.03, -0.09, -0.28, -0.07, 0.06 (mean -0.06; controls 1 of 18).
Variant KLPQSYLYESRNKNAVA, NASTRES, QQYHRLPLS showed -0.29, -0.40, -0.44, -0.50, -0.48, -0.26 (mean -0.39; controls 1 of 18).
Variant KLSQSVPYESRNKNSVA, NASTREQ, QQYHRLPLS showed 0.31, 0.09, 0.24, 0.24, 0.26, 0.33 (mean 0.25; controls 1 of 18).
Variant KLQQSVLYESRNKNSVA, GASTRCS, QQYHRLPLS showed 0.90, 0.40, 0.13, 0.53, 0.87, 0.73 (mean 0.59; controls 0 of 18).
Variant KLSQSQLYESRMKNSVA, NASTREQ, QQYHRLPLS showed -0.12, -0.40, -0.25, -0.65, -0.33, 0.13 (mean -0.27; controls 0 of 18).
Variant KLSQSGLYESRNKNSVA, NASTRES, QDYHRLPLS showed 0.23, 0.85, 0.30, 0.49, 0.57, 0.32 (mean 0.46; controls 3 of 18).
Variant KVSQSHLYESRNKNSVA, NASTRLS, QQYHRLPLS showed 0.22, 0.23, 0.25, 0.07, 0.21, 0.44 (mean 0.24; controls 2 of 18).
Variant KLSQSMLYESRNKNSVA, NASTRFS, QQYHRLPLS showed 0.11, -0.14, -0.16, -0.32, -0.15, -0.08 (mean -0.12; controls 4 of 18).
Variant KVSQSFLYEQRNKNSVA, DASTRES, QQYHRLPLS showed -0.07, -0.20, -0.33, -0.46, -0.22, -0.10 (mean -0.23; controls 1 of 18).
Variant KLYQSHLYESRNKNSVA, NASYRES, QQYHRLPLS showed 0.42, 0.34, 0.13, -0.03, 0.30, 0.32 (mean 0.25; controls 0 of 18).
Variant KFSQSVLYESRNKNSVA, NASTREM, QQYHRLPLS showed -0.04, 0.19, 0.01, -0.37, 0.10, 0.11 (mean 0.00; controls 0 of 18).
Variant KVQQSWLYESRNKNSVA, NASTRES, QQYHRLPLS showed -0.15, -0.18, -0.48, -0.39, -0.30, -0.02 (mean -0.25; controls 1 of 18).
Variant KLQQSWPYESRNKNSVA, NASTRMS, QQYHRLPLS showed 0.75, 0.85, 0.77, 1.01, 0.80, 0.91 (mean 0.85; controls 0 of 18).
Variant KVSMSELYESRNKNSVA, EASTRES, QQYHRLPLS showed 0.08, 0.07, -0.04, 0.06, -0.11, 0.09 (mean 0.02; controls 1 of 18).
Variant KLPQSVLYESRNKNSVA, GASTRED, QQYHRLPLS showed 0.04, 0.12, -0.02, -0.04, 0.12, -0.04 (mean 0.03; controls 0 of 18).
Variant KLPQSVLYESRNKNSVA, NASQREQ, QQYHRLPLS showed -0.21, -0.13, -0.26, -0.15, -0.42, -0.11 (mean -0.21; controls 0 of 18).
Variant KCSQSVLYEDRNKNSVA, NASQRES, QQYHRLPLS showed 0.11, -0.17, -0.24, -0.16, -0.04, 0.11 (mean -0.06; controls 0 of 18).
Variant KLSQSVLYESRNKNSVA, DAETRES, QQYHRLPLS showed -0.23, -0.44, -0.18, -0.47, -0.29, -0.16 (mean -0.29; controls 0 of 18).
Variant KVVQSVLYESRNKNSVA, NASQRES, QQYHRLPLS showed 0.34, 0.02, 0.16, 0.22, 0.04, 0.27 (mean 0.17; controls 1 of 18).
Variant KLVQSELYESRNKNSVA, NASQRES, QQYHRLPLS showed -0.23, 0.01, -0.05, -0.33, -0.17, -0.05 (mean -0.14; controls 1 of 18).
Variant KSSQSWLYESRNKNSVA, DASQRES, QQYHRLPLS showed -0.18, -0.30, -0.62, -0.24, -0.03, -0.12 (mean -0.25; controls 2 of 18).
Variant KFSQSWLYESRNKNSVA, EASQRES, QQYHRLPLS showed -0.48, -0.46, -0.56, -0.69, -0.71, -0.40 (mean -0.55; controls 1 of 18).
Variant KLSQSVGYESRNKNSVA, NASTREE, QQYHRLPLS showed 0.33, 0.41, 0.35, 0.31, 0.22, 0.47 (mean 0.35; controls 1 of 18).
Variant KFQQSELYESRNKNSVA, EASQRES, QQYHRLPLS showed -0.08, -0.21, -0.10, -0.42, -0.17, -0.06 (mean -0.17; controls 2 of 18).
Variant KLPQSMLYESRNKNSVA, DASTRES, QQYHRLPLS showed -0.35, -0.55, -0.50, -0.57, -0.47, -0.30 (mean -0.45; controls 1 of 18).
Variant KLSQSVLYESRNKMSVA, DASTRES, QQYHRLPLS showed 0.56, 0.25, 0.02, 0.05, 0.12, 0.32 (mean 0.22; controls 1 of 18).
Variant KVSQSWLYESRNKWSVA, NASTRES, QQYHRLPLS showed 0.21, 0.13, 0.05, -0.18, -0.12, 0.27 (mean 0.06; controls 1 of 18).
Variant KLQQSTLYESRNKNSVA, HASTRCS, QQYHRLPLS showed 0.82, 0.34, 0.59, 0.42, 0.60, 0.27 (mean 0.51; controls 0 of 18).
Variant KLSQSWLYESRNKNSVA, NASTRCS, QQYHRLPLS showed 0.24, 0.59, 0.13, 0.13, 0.00, 0.20 (mean 0.21; controls 2 of 18).
Variant KLSQSVLMESRNKNSVA, EASTRLS, QQYHRLPLS showed 0.02, -0.38, -0.41, -0.49, -0.49, -0.48 (mean -0.37; controls 0 of 18).
Variant KLSQSWLYESRNKNNVA, NASQRES, QQYHRLPLS showed -0.09, -0.24, -0.34, -0.44, -0.51, -0.18 (mean -0.30; controls 0 of 18).

7 of these entries, quoted again:

CDR-L1	CDR-L2	CDR-L3	log10 Kd (nM) by replicate	mean log10 Kd (nM)	signal with controls
KVSQSWLYESRNKWSVA	NASTRES	QQYHRLPLS	0.21, 0.13, 0.05, -0.18, -0.12, 0.27	0.06	1 of 18
KLPQSMLYESRNKNSVA	DASTRES	QQYHRLPLS	-0.35, -0.55, -0.50, -0.57, -0.47, -0.30	-0.45	1 of 18
KFQQSELYESRNKNSVA	EASQRES	QQYHRLPLS	-0.08, -0.21, -0.10, -0.42, -0.17, -0.06	-0.17	2 of 18
KVSQSHLYESRNKNSVA	NASTRMS	QQYHRLPLS	0.03, -0.03, -0.09, -0.28, -0.07, 0.06	-0.06	1 of 18
KLSQSGLYESRNKNSVA	NASTRES	QDYHRLPLS	0.23, 0.85, 0.30, 0.49, 0.57, 0.32	0.46	3 of 18
KLPQSVLYESRNKNSVA	GASTRED	QQYHRLPLS	0.04, 0.12, -0.02, -0.04, 0.12, -0.04	0.03	0 of 18
KLSQSWLYESRNKNNVA	NASQRES	QQYHRLPLS	-0.09, -0.24, -0.34, -0.44, -0.51, -0.18	-0.30	0 of 18

Three control strains display no target. For all light chain designs, 4% of the pairings with them gave a signal, with a median of 2.64 and one signal in twenty below 1.59, so weak values seen in few replicates may be background. The control count says in how many pairings with the empty strains this scFv gave a signal.
The authors' rule: three or more of the six replicates give a measured affinity, fewer mean a poor binder.
Values of this round are not directly comparable with the first-round values of the same sequences.

Data: MIT Lincoln Laboratory AlphaSeq set, Li et al. 2023, doi:10.1038/s41467-023-39022-2, as distributed in FLAb.